Results published in article PMC6008492, “Structure activity relationship studies on rhodanines and derived enethiol inhibitors of metallo-β-lactamases” (Bioorganic & Medicinal Chemistry, 2018).

Chains of the proteins cited; added tags and fusions are not shown. Residues count along the entry.
UniProt C7C422, 29-270, looked up, species assumed: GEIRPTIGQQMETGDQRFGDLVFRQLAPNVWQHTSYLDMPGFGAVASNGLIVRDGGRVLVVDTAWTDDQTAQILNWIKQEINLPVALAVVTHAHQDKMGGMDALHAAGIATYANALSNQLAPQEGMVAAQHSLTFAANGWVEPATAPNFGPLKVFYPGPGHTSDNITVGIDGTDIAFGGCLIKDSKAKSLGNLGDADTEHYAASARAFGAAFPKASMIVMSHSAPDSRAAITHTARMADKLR
UniProt P04190, 31-257: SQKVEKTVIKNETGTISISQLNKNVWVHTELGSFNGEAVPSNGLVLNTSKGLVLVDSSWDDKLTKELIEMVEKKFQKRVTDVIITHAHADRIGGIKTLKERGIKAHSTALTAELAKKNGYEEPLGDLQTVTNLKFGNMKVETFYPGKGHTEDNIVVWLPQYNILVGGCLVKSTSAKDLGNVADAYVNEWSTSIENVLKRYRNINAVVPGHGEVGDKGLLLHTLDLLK
UniProt P52699, 19-246, looked up, species assumed: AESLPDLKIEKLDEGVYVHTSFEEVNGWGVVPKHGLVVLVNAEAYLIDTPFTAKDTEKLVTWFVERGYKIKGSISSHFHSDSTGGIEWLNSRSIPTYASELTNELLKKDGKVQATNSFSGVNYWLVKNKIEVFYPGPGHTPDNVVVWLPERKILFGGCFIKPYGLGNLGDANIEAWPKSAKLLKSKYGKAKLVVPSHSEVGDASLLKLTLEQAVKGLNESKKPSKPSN
UniProt Q8G9Q0, entry or part of it: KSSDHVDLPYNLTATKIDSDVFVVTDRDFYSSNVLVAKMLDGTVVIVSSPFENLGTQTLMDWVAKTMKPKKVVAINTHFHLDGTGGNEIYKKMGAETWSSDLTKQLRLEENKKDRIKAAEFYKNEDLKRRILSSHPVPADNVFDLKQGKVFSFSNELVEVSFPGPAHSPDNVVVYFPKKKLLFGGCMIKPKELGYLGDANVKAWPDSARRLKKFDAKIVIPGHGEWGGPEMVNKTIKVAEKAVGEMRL

How the values were obtained:
Format in all cases: biochemical
Conditions in all cases: enethiols 6 assayed as sodium salts; 10 min incubation
NDM-1 = biological target: T1, NDM-1 (Klebsiella pneumoniae, UniProt C7C422); experiment: NDM-1 inhibition, fluorogenic cephalosporin (FC5) hydrolysis
T1 construct: made in house
Experimental: (§1) Inhibition analyses against bacterial MBLs and SBLs were performed as described previously.[22], [24], [26] Residual enzyme activities were determined for a range of inhibitor concentrations. Non-linear regression fitting of IC50 curves was carried out using a three-parameter dose–response curve in GraphPad Prism. Errors in IC50 values are expressed as: σ(logIC50)/logIC50×IC50
(§2) We first screened the inhibitors against a representative set of presently clinically important and other MBLs[22], comprising both Class B1 enzymes (NDM-1, New Delhi MBL-1; VIM-2, Verona integron–encoded MBL-2; BcII, Bacillus cereus II MBL; SPM-1, São Paulo MBL-1; IMP-1, imipenemase MBL-1) and the Class B2 MBL CphA (carbapenem hydrolysing MBL from Aeromonas hydrophila).[22] The latter MBL (CphA) only utilises one active site Zn(II) ion in catalysis, whilst the others normally use two Zn(II) ions.
Figure S4: IC50 curves for NDM-1 inhibition time courses. Residual activities were calculated from the
(§3) initial rate of FC5 hydrolysis after incubation of the enzyme with the inhibitor for 10 minutes. […]

BcII = biological target: T2, BcII (Bacillus cereus, UniProt P04190)
T2 construct: made in house
Experimental: as §1
as §2, with “ions. We also screened the inhibitors against a representative panel of SBLs from different classes (TEM-1, Temoneira β-lactamase-1, class A; CTX-M-15, cefotaxime hydrolysing β-lactamase from Munich 15, class A, extended spectrum β-lactamase (ESBL); AmpC E. coli, class C, and OXA-10, oxacillinase-10, class D).” for “ions.”
Figure S2: IC50 curves for BcII inhibition time courses. Residual activities were calculated from the initial
rate of FC5 hydrolysis after incubation of the enzyme with the inhibitor for 10 minutes. […]

IMP-1 = biological target: T3, IMP-1 (Serratia marcescens, UniProt P52699); experiment: IMP-1 inhibition, fluorogenic cephalosporin (FC5) hydrolysis
T3 construct: made in house
Experimental: as §1
as §2, with “ions. We also screened the inhibitors against a representative panel of SBLs from different classes (TEM-1, Temoneira β-lactamase-1, class A; CTX-M-15, cefotaxime hydrolysing β-lactamase from Munich 15, class A, extended spectrum β-lactamase (ESBL); AmpC E. coli, class C, and OXA-10, oxacillinase-10, class D).” for “ions.”
Figure S3: IC50 curves for IMP-1 inhibition time courses. Residual activities were calculated from the
initial rate of FC5 hydrolysis after incubation of the enzyme with the inhibitor for 10 minutes.

SPM-1 = SPM-1 (Pseudomonas aeruginosa, UniProt Q8G9Q0); experiment: SPM-1 inhibition, fluorogenic cephalosporin (FC5) hydrolysis
Experimental: as §1
as §2, with “ions. We also screened the inhibitors against a representative panel of SBLs from different classes (TEM-1, Temoneira β-lactamase-1, class A; CTX-M-15, cefotaxime hydrolysing β-lactamase from Munich 15, class A, extended spectrum β-lactamase (ESBL); AmpC E. coli, class C, and OXA-10, oxacillinase-10, class D).” for “ions.”
Figure S5: IC50 curves for SPM-1 inhibition time courses. Residual activities were calculated from the
as §3

O=C(O)/C(S)=C/c1ccc(Br)cc1 [Compound 6d]
IC50 (NDM-1): 6.3 µM

O=C(O)/C(S)=C/c1ccccc1I [Compound 6i]
IC50 (BcII): 6.3 µM

O=C(O)/C(S)=C/c1c2ccccc2cc2ccccc12 [Compound 6r]
IC50 (IMP-1): 1.8 ± 0.003 µM
IC50 (SPM-1): 3.2 ± 0.2 µM

CN1CCN(NC(=O)CN2C(=O)S/C(=C\c3c(Cl)ccc(Cl)c3Cl)C2=O)CC1 [Compound 10]
IC50 (IMP-1): 3.2 ± 0.2 µM
